Test system: Ste2-like fungal mating GPCRs expressed in S. cerevisiae
Assay: GPCR on-off activity and dose response assay (FUS1 promoter coRFP fluorescent reporter, strain JTy014, synthetic peptide ligand)
Format: cell-based, Ascomycete fungi (expressed in S. cerevisiae)
Set-up: EC50: unit: log10 M
Conditions: for Hill Slope: Hill slope of 4-parameter fit; for Bttm: bottom of 4-parameter fit of the fluorescence dose response curve (basal activation); for Fold Change: fold-change activation from Top and Bttm of the fit; for EC50: peptide/GPCR pair, synthetic cognate peptide, fluorescence read-out, 4-parameter fit of dose response curves (FIG. 6), values given as negative (log) numbers; for Span: span of 4-parameter fit of the fluorescence dose response curve; for Top: top of 4-parameter fit of the fluorescence dose response curve (maximal activation)
Protocol: GPCR on-off activity and dose response assay. GPCR activity and response to increasing dosage of synthetic peptide ligand was measured in strain JTy014 using the genomically integrated FUS1-promoter controlled coRFP as a fluorescent reporter. JTy014 strains carrying the appropriate GPCR expression plasmid were assayed in 96-well microtiter plates using 200 μl total volume, cultured at 30° C. and 800 RPM. Cells were seeded at an A600 of 0.3 (Note: all herein reported cell density values are based on A600 measurements in 96-well plates of a 200 μl volume of cultures with a path length of ˜0.3 cm performed in an Infinite M200 plate reader from Tecan) in SC media lacking uracil (selective component). All measurements were performed in triplicates. RFP fluorescence (excitation: 588 nm, emission: 620 nm) and culture turbidity (A600) were measured after 8 hours using an Infinite M200 plate reader (Tecan). Since the optical density values were outside the linear range of the photodetector, all optical density values were first corrected using the following formula to give true optical density values: […]
where Ameas is the measured optical density, Asat is the saturation value of the photodetector and k is the true optical density at which the detector reaches half saturation of the measured optical density^36. Dose-response was measured at different concentrations (11 five-fold dilutions in H2O starting at 40 μM peptide, H2O was used as “no peptide” control) of the appropriate synthetic peptide ligand. All fluorescence values were normalized by the A600, and plotted against the log(10)-converted peptide concentrations. Data were fit to a four-parameter non-linear regression model using Prism (GraphPad) in order to extract GPCR-specific values for basal activation, maximal activation, EC50 and the Hill coefficient. Fold-activation was calculated for each GPCR as the maximum A600-normalized fluorescence of peptide-treated cells divided by the A600 normalized fluorescence value of water-treated cells.

| Structure (SMILES) | Hill Slope | Bttm | Fold Change | EC50 | Span | Top |
| --- | --- | --- | --- | --- | --- | --- |
| CSCC[C@H](NC(=O)[C@H](CS)NC(=O)[C@@H](N)Cc1c[nH]c2ccccc12)C(=O)N[C@@H](CCCNC(=N)N)C(=O)N1CCC[C@H]1C(=O)NCC(=O)N[C@@H](CCC(N)=O)C(=O)N1CCC[C@H]1C(=O)N[C@@H](CS)C(=O)N[C@@H](Cc1c[nH]c2ccccc12)C(=O)O [Bb] | 1.0 | 25.2 | 9.7 | −8.5 | 218.9 | 244.1 |
| N=C(N)NCCC[C@H](NC(=O)CNC(=O)[C@H](CS)NC(=O)[C@@H](N)Cc1c[nH]c2ccccc12)C(=O)N1CCC[C@H]1C(=O)NCC(=O)N[C@@H](CCC(N)=O)C(=O)N1CCC[C@H]1C(=O)N[C@@H](CS)C(=O)O [Bc] | 0.7 | 28.6 | 12.3 | −8.1 | 323.3 | 351.9 |
| CC(C)C[C@H](NC(=O)[C@H](CCCNC(=N)N)NC(=O)[C@H](Cc1ccccc1)NC(=O)CN)C(=O)N[C@H](C(=O)N[C@@H](CC(N)=O)C(=O)N[C@@H](Cc1ccccc1)C(=O)NCC(=O)N[C@@H](Cc1ccc(O)cc1)C(=O)N[C@@H](Cc1ccccc1)C(=O)N[C@@H](CCC(=O)O)C(=O)N1CCC[C@H]1C(=O)NCC(=O)O)[C@@H](C)O [Ca] | 1.0 | 38.9 | 7.0 | −7.7 | 232.8 | 271.6 |
| CC[C@H](C)[C@H](NC(=O)[C@@H]1CCCN1C(=O)[C@H](CCC(N)=O)NC(=O)[C@H](Cc1ccccc1)NC(=O)[C@H](Cc1ccccc1)NC(=O)[C@H](Cc1c[nH]c2ccccc12)NC(=O)[C@H](Cc1ccc(O)cc1)NC(=O)[C@@H](NC(=O)[C@H](CC(C)C)NC(=O)[C@H](Cc1ccccc1)NC(=O)[C@H](CCCNC(=N)N)NC(=O)[C@H](CO)NC(=O)[C@H](CC(N)=O)NC(=O)[C@H](CCCCN)NC(=O)[C@@H](N)CCCCN)[C@@H](C)O)C(=O)N[C@@H](CCSC)C(=O)O [Cgu] | 1.1 | 41.2 | 5.1 | −7.4 | 170.5 | 211.7 |
| CC[C@H](C)[C@H](NC(=O)[C@H](Cc1c[nH]c2ccccc12)NC(=O)[C@H](CCCCN)NC(=O)[C@H](Cc1c[nH]c2ccccc12)NC(=O)[C@@H](N)CCCCN)C(=O)N[C@@H](CCCCN)C(=O)N[C@@H](Cc1ccccc1)C(=O)N[C@@H](CCCNC(=N)N)C(=O)N[C@@H](CC(N)=O)C(=O)N[C@H](C(=O)N[C@@H](CC(=O)O)C(=O)N[C@H](C(=O)N[C@H](C(=O)NCC(=O)O)[C@@H](C)CC)C(C)C)[C@@H](C)O [Cl] | 0.9 | 39.8 | 1.4 | −7.5 | 186.0 | 225.8 |
| CSCC[C@H](NC(=O)[C@H](C)NC(=O)[C@@H]1CCCN1C(=O)[C@H](CC(=O)O)NC(=O)CNC(=O)[C@@H]1CCCN1C(=O)[C@H](CCCNC(=N)N)NC(=O)[C@@H]1CCCN1C(=O)[C@@H](NC(=O)[C@H](Cc1ccc(O)cc1)NC(=O)[C@H](Cc1c[nH]c2ccccc12)NC(=O)[C@H](Cc1ccccc1)NC(=O)[C@H](Cc1c[nH]c2ccccc12)NC(=O)CNC(=O)[C@H](Cc1c[nH]c2ccccc12)NC(=O)[C@H](CC(=O)O)NC(=O)CN)C(C)C)C(=O)O [Gc] | 1.8 | 22.9 | 8.2 | −6.9 | 164.3 | 187.2 |
| CC[C@H](C)[C@H](NC(=O)[C@H](CCCNC(=N)N)NC(=O)[C@H](Cc1ccc(O)cc1)NC(=O)[C@H](CS)NC(=O)[C@@H](N)Cc1c[nH]c2ccccc12)C(=O)NCC(=O)N[C@@H](CCC(=O)O)C(=O)N1CCC[C@H]1C(=O)N[C@@H](CS)C(=O)N[C@@H](Cc1c[nH]c2ccccc12)C(=O)O [Hj] | 0.6 | 53.0 | 8.1 | −7.8 | 376.5 | 429.5 |
